Target: T1, TNAP (Homo sapiens, UniProt P05186)
T1 sequence (P05186 18-501 limits assumed): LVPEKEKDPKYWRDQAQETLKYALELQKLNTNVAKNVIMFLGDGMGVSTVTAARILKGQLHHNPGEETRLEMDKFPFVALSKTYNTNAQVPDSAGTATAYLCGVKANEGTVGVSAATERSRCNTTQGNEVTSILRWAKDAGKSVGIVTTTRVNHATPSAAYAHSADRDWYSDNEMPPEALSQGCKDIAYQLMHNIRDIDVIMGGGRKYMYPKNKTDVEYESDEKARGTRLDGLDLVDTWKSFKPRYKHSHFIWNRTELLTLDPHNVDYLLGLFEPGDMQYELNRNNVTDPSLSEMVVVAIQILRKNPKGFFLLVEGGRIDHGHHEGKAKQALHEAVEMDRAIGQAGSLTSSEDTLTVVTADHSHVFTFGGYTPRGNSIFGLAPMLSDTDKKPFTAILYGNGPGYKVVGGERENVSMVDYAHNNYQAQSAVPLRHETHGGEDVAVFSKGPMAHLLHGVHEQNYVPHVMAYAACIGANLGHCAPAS
Assay: TNAP mechanism of action and reversibility studies
Type: biochemical
Details: Lineweaver-Burk plot

- Mode of inhibition versus phosphate-acceptor substrate DEA: non-competitive inhibition
- Mode of inhibition versus phosphate-donor substrate CDP-star: uncompetitive
Compound: COc1ccc(OC)c(S(=O)(=O)Nc2cnc3ccccc3c2)c1 [Compound 1, 2,5-Dimethoxy-N-(quinolin-3-yl)benzenesulfonamide]

— article PMC2783186 (Journal of medicinal chemistry, 2009)
